Measured values published in PubChem BioAssay AID2718 (Broad Institute, 2010).
The list shows a part of the results, in another mix than the full data. The source made the active and inactive calls. Rule as the data show it: active = inhibition above about 26% (passing the limit was not always enough); inconclusive = no clear call, values can overlap the other calls.

Chains of the proteins cited; added tags and fusions are not shown.
UniProt O15379, whole entry: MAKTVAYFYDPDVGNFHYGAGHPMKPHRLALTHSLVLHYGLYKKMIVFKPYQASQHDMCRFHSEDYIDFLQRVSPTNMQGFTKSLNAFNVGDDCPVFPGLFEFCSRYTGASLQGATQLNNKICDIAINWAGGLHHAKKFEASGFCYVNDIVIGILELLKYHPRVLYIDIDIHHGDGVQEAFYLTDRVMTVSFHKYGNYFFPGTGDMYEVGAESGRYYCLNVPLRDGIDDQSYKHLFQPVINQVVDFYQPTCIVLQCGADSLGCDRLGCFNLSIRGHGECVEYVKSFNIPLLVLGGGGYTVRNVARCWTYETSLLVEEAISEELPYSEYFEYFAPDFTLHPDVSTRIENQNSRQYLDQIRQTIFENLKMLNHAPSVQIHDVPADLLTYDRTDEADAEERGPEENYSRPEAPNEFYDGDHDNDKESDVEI

Each compound was assayed against Histone deacetylase 3 (Homo sapiens) (UniProt O15379) (assay: HDAC3 deacetylase inhibitors, primary screen, biochemical, fluorescence, cell-free homogeneous (AID 2718)). Details: recombinant HDAC3, fluorogenic peptide/trypsin coupled, at 8.3 µM, hits give high values.

Row | SMILES | inhibition
1 | CP(=O)(Oc1ccccc1)N1CCOC1=O (stereo unspecified) | inactive: 1.95%
